Measured values taken from ChEMBL document CHEMBL5375967 (J Med Chem, 2023).

Target: T1, Leukotriene A-4 hydrolase (Homo sapiens, UniProt P09960)
T1 sequence (P09960 whole entry): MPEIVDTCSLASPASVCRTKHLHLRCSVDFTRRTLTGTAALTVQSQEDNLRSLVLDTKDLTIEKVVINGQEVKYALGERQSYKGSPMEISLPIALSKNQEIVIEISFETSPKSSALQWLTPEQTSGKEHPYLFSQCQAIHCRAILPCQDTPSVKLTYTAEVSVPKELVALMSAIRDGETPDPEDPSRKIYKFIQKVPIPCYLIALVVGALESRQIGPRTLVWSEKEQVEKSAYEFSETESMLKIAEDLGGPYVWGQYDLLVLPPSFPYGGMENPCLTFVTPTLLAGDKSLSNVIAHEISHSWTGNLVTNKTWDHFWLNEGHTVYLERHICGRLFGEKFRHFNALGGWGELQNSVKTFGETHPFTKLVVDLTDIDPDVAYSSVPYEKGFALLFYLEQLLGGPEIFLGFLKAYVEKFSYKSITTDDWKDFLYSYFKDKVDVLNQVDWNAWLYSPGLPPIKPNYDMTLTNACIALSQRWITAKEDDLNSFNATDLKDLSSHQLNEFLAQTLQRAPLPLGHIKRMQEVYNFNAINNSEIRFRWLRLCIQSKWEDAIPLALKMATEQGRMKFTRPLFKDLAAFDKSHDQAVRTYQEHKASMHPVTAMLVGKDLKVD
Test: Inhibition of LTA4H (unknown origin)

## O=C(O)CCCN1CCC[C@H]1COc1ccc(Oc2ccc(Cl)cc2)cc1
  IC50: 23 nM
